scFv variants of Ab-14 (heavy chain) against a SARS-CoV-2 spike peptide

From the AlphaSeq antibody data of Li et al. 2023 (doi:10.1038/s41467-023-39022-2), copy in the FLAb collection.

Antigen: PDVDLGDISGINAS, a 14-residue peptide of the SARS-CoV-2 spike HR2 region.

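Phage display of a naive human antibody library on the peptide gave the parent. The variants were designed computationally from a first round of random CDR variants and then made and measured. Their group label is 14H_GP_HC (GP: Gaussian process model; HC: hill climbing; a sequence that several methods proposed may carry one label only). The assay is AlphaSeq: two haploid yeast populations carry antibody and antigen on their surface. Pairs that bind mate more often; barcode pairs of the diploids are counted by sequencing. A regression on co-assayed BCL2-family reference pairs converts the normalised counts of each replicate to an apparent Kd. The assay was run in six technical replicates.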

Parent scFv Ab-14: VH joined to VL by a (GGGGS)3 linker. Changes lie in the heavy chain CDRs alone.
VH: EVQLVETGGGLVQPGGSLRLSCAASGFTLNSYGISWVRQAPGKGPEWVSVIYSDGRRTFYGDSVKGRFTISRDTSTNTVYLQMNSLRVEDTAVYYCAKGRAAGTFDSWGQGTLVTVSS
VL: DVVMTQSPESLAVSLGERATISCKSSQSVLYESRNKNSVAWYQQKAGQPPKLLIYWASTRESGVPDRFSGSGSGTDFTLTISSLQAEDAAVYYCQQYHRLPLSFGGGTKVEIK

Sequences are complete VH domains. Numbers give log10(Kd / nM), so 0 is 1 nM and 3 is 1 µM. Smaller is tighter. The mean shown is taken over the replicates in which the pair was detected. An entry "n.d." has no value in the source: the pair was not observed among the diploids in that replicate. This suggests poor binding but is not conclusive.

VH | replicates, log10 nM | mean, log10 nM | signal with controls
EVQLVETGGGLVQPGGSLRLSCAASGFTLNSYGISWVRQAPGKGPEWVSVIYSDGQRTFYSDSVKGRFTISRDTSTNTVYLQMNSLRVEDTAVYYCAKGHAAGTFDSWGQGTLVTVSS | 0.53 0.48 0.66 0.39 0.90 0.07 | 0.50 | 0/18
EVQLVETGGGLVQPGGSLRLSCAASGFHLNDYGISWVRQAPGKGPEWVSVIYSDGRRTFYIDSVKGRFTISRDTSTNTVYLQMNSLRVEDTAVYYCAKGRQAGTFDSWGQGTLVTVSS | 2.48 2.64 n.d. 2.48 n.d. n.d. | 2.53 | 1/18 (1.56)
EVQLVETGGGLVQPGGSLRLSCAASGFTLDSYGISWVRQAPGKGPEWVSVIYSDGRRTFYKDSVKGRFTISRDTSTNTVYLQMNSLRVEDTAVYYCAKGRAAGTFDSWGQGTLVTVSS | 1.00 2.10 0.76 1.12 1.32 1.11 | 1.23 | 0/18
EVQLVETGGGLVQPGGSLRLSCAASGFTLNEYGISWVRQAPGKGPEWVSVIYSDGRRTFYSDAVKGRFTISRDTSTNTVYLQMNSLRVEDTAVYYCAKGRMAGTFDSWGQGTLVTVSS | 0.18 -0.07 -0.28 -0.30 -0.11 -0.03 | -0.10 | 0/18
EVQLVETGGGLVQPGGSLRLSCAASGFSLNDYGISWVRQAPGKGPEWVSVIYSDGRRTFYGDSVKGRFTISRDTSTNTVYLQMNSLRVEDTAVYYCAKGRIAGTFESWGQGTLVTVSS | 0.00 -0.12 -0.09 -0.11 0.09 -0.02 | -0.04 | 0/18
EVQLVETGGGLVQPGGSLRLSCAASGFTLNSYGISWVRQAPGKGPEWVSVIYSDGRRTFYADSVKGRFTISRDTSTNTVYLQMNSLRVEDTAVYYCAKGHAGGTFDSWGQGTLVTVSS | n.d. n.d. 2.33 4.12 n.d. n.d. | 3.23 | 0/18
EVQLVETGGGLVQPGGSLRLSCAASGFTLNDYGISWVRQAPGKGPEWVSVIYSDGRRTYYIDSVKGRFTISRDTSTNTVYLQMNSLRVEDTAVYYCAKGRTAGTFDSWGQGTLVTVSS | 0.37 1.48 0.69 1.09 1.00 n.d. | 0.93 | 0/18
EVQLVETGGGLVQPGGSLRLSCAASGFTLNEYGISWVRQAPGKGPEWVSVIYSDGRRTFYSDSVKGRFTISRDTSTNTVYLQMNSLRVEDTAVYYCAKGHAAGTFDFWGQGTLVTVSS | n.d. 1.86 1.25 2.83 n.d. 1.47 | 1.85 | 0/18
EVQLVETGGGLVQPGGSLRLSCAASGFTLDSYGISWVRQAPGKGPEWVSVIYADGRRTFYGDSVKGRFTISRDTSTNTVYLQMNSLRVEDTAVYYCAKGRAAGTFNSWGQGTLVTVSS | 0.53 0.96 -0.26 0.31 -0.58 2.47 | 0.57 | 0/18
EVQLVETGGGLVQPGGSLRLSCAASGYTLNEYGISWVRQAPGKGPEWVSVIYSDGRRTFYGDSVKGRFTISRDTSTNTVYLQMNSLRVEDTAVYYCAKGRAAVTFDKWGQGTLVTVSS | n.d. n.d. n.d. 2.24 n.d. n.d. | 2.24 | 1/18 (1.93)
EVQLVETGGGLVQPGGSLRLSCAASGFDLNSYGISWVRQAPGKGPEWVSVIYSDGRRTFYGDSVKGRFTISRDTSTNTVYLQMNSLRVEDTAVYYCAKGEAAGTFKSWGQGTLVTVSS | n.d. n.d. n.d. n.d. n.d. n.d. | n.d. | 0/18
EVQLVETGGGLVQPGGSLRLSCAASGFTLNEYGISWVRQAPGKGPEWVSVIYSDGRRTFYTDSVKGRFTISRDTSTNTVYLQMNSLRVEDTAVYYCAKGHVAGTFDSWGQGTLVTVSS | 0.38 0.20 -0.29 -0.01 0.00 0.16 | 0.07 | 0/18
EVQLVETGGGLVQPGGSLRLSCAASGFDLNEYGISWVRQAPGKGPEWVSVIYSDGRRTFYGDSVKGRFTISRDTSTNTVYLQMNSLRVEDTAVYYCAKGRAAGTFDIWGQGTLVTVSS | 0.52 0.23 0.07 0.41 0.33 0.13 | 0.28 | 2/18 (1.09)
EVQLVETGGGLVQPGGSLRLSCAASGFTLNDYGISWVRQAPGKGPEWVSVIYSDGRRTQYGDSVKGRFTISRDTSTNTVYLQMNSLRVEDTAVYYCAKGRTAGTFWSWGQGTLVTVSS | n.d. n.d. n.d. n.d. n.d. n.d. | n.d. | 1/18 (0.77)
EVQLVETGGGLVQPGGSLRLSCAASGFTLKSYGISWVRQAPGKGPEWVSVIYSDGRRTFYSDSVKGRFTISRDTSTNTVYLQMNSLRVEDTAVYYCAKGEAGGTFDSWGQGTLVTVSS | 1.50 1.82 1.78 2.05 2.22 1.71 | 1.85 | 0/18
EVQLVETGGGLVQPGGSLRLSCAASGFDLNSYGISWVRQAPGKGPEWVSVIYSDGRRTFYIDSVKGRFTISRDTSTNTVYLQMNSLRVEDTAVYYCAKGRAAGTFWMWGQGTLVTVSS | n.d. n.d. n.d. n.d. n.d. n.d. | n.d. | 0/18
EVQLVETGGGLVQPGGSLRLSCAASGFTLDSYGISWVRQAPGKGPEWVSVIYSDGRRTFYDDSVKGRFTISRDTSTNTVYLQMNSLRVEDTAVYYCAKGWLAGTFDSWGQGTLVTVSS | 1.07 0.63 0.66 1.08 0.74 1.30 | 0.91 | 0/18

The parent sequence was in this pool as ten entries: three were never detected, three once, and four in most replicates, with averages from 0.34 to 2.37. The authors averaged sequences with at least three values out of six and counted those with two or fewer as poor binders. A sequence measured in both rounds can read differently, since the two assays cover different ranges. Empty control strains, which show no peptide, gave a signal in 1% of pairings with all heavy chain designs; the median was 2.08 and 95% of these signals were weaker than 0.84. No background was subtracted. Also given: how often the same scFv was detected with the empty control strains, with their mean in brackets.